Literature values, collected in patent US11679103B2, “Multi-targeting agents for Alzheimer's disease therapy” (The Regents of the University of California, priority 2018, dated 2023).

Target: T1, Amyloid β (Homo sapiens, UniProt P05067)
T1 construct: host or cells: AD patients (clinical trials)
Conditions: cited from earlier work

Substance: Bapineuzumab: anti-amyloid monoclonal antibody
- Aβ plaque load measured by PET imaging, before vs after antibody treatment (large clinical trials): did not change significantly
- Outcome (clinical) (mild to moderate AD subjects): Did not improve
